Laboratory results from US20080167385A1, “Crystal Structure of Human Proliferating Cell Nuclear Antigen (Pcna) and Uses Thereof” (priority 2004, published 2008).
Where two headings read alike, the source gives them in different places.

Protein sequences, listed by entry. Tags and fused reporters are not part of them. Lines headed by an entry give the natural chain unless they say otherwise; changes in a name come on top.
UniProt P11802: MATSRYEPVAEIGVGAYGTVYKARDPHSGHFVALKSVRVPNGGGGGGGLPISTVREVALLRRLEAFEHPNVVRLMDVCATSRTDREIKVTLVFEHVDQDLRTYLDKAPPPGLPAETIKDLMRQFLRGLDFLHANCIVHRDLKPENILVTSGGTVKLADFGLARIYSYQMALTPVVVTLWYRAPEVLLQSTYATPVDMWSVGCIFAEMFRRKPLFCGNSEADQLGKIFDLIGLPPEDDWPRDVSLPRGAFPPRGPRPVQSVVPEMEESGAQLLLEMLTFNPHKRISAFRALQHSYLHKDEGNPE
UniProt P24385, whole entry: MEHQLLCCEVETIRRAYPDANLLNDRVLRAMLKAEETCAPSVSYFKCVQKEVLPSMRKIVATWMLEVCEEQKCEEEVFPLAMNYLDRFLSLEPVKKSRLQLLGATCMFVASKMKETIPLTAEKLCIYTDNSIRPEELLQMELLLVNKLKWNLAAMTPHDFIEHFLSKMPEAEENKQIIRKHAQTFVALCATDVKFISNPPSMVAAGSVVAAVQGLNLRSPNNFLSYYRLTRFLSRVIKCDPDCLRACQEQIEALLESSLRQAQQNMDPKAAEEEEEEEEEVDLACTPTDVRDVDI

Biological target: T1, CDK4/cyclin D1 (Homo sapiens, UniProt P11802+P24385)
T1 construct: His6 (N); made in house; host or cells: CDK4: Sf9 insect cells (baculovirus); GST-pRb: E. coli BL21(DE3)
Assay: CDK4/cyclin D1 kinase assay (in vitro pRb phosphorylation)
Assay type: biochemical

## PCNA: Recombinant human PCNA expressed in Escherichia coli BL21(DE3)
1 μM CDK4/cyclin D1, no peptide, read-out: IC50, inhibition of CDK4/cyclin D1 kinase activity by PCNA
  IC50: 18 ± 2.4 µM
At 30 μM PCNA
  phosphorylation of pRb: almost completely abolished
At up to 10 μM PCNA
  kinase activity of 1 μM CDK4/cyclin D1: undiminished
In the presence of 25 μM CM peptide, read-out: IC50, inhibition of CDK4/cyclin D1 function by PCNA
  IC50: 15 ± 1.8 µM
